Sequences and labels used below:
B1: RAC-alpha serine/threonine-protein kinase (Homo sapiens), P31749 (parent)
chain: MSDVAIVKEGWLHKRGEYIKTWRPRYFLLKNDGTFIGYKERPQDVDQREAPLNNFSVAQCQLMKTERPRPNTFIIRCLQWTTVIERTFHVETPEEREEWTTAIQTVADGLKKQEEEEMDFRSGSPSDNSGAEEMEVSLAKPKHRVTMNEFEYLKLLGKGTFGKVILVKEKATGRYYAMKILKKEVIVAKDEVAHTLTENRVLQNSRHPFLTALKYSFQTHDRLCFVMEYANGGELFFHLSRERVFSEDRARFYGAEIVSALDYLHSEKNVVYRDLKLENLMLDKDGHIKITDFGLCKEGIKDGATMKTFCGTPEYLAPEVLEDNDYGRAVDWWGLGVVMYEMMCGRLPFYNQDHEKLFELILMEEIRFPRTLGPEAKSLLSGLLKKDPKQRLGGGSEDAKEIMQHRFFAGIVWQHVYEKKLSPPFKPQVTSETDTRYFDEEFTAQMITITPPDQDDSMECVDSERRPHFPQFSYSASGTA
partner: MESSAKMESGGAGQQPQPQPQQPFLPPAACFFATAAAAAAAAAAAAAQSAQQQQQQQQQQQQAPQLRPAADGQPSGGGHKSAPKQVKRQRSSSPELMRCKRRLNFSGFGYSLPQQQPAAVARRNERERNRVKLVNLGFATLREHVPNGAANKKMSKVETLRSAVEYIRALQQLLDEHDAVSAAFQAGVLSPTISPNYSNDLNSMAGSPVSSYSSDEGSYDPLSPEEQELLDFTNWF
B2: RAC-alpha serine/threonine-protein kinase (Homo sapiens), P31749 (parent)
chain: B1 chain
partner: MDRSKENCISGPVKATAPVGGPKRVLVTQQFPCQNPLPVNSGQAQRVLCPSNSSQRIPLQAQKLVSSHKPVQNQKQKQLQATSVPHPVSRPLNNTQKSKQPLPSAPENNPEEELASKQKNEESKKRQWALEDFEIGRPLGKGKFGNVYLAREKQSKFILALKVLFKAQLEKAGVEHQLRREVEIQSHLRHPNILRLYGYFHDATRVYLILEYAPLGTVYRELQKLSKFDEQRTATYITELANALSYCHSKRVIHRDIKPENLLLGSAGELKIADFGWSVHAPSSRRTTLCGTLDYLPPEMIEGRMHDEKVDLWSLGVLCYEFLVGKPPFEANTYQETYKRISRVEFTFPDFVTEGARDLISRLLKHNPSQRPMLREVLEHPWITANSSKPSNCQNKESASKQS
B3: RAC-alpha serine/threonine-protein kinase (Homo sapiens), P31749 (parent)
chain: B1 chain
partner: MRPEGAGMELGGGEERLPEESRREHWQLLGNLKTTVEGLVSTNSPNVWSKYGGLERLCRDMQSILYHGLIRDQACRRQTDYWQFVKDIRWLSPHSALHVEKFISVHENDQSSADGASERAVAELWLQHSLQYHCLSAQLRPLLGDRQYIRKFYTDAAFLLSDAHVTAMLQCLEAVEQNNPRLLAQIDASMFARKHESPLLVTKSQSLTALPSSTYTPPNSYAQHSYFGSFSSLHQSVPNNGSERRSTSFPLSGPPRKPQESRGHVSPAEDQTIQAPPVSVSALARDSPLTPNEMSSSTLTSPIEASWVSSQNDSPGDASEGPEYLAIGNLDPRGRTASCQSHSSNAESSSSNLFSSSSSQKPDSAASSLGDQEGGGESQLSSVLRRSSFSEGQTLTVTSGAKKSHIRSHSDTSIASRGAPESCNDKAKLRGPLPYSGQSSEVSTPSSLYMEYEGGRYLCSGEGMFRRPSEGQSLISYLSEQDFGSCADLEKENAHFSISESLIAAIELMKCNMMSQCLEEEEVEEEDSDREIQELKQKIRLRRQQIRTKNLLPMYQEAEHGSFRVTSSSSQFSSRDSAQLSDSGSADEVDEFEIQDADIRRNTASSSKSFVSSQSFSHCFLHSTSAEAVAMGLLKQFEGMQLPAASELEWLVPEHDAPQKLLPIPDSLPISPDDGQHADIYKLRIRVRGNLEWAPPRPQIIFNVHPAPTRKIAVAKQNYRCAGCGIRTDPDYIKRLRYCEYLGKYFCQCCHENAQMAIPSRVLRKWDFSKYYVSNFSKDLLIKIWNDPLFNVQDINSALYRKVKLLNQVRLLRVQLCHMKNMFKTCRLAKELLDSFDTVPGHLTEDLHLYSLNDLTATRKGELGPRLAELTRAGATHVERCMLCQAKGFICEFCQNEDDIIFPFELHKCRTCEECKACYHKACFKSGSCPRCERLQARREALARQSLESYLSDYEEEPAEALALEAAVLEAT
B4: RAC-alpha serine/threonine-protein kinase (Homo sapiens), P31749 (parent)
chain: B1 chain
partner: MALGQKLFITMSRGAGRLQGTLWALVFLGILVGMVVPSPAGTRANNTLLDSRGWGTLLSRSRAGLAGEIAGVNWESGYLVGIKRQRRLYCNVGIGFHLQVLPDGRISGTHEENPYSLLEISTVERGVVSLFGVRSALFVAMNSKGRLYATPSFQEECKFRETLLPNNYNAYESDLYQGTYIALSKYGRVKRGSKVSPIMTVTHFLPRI
B5: RAC-alpha serine/threonine-protein kinase (Homo sapiens), P31749 (parent)
chain: B1 chain
partner: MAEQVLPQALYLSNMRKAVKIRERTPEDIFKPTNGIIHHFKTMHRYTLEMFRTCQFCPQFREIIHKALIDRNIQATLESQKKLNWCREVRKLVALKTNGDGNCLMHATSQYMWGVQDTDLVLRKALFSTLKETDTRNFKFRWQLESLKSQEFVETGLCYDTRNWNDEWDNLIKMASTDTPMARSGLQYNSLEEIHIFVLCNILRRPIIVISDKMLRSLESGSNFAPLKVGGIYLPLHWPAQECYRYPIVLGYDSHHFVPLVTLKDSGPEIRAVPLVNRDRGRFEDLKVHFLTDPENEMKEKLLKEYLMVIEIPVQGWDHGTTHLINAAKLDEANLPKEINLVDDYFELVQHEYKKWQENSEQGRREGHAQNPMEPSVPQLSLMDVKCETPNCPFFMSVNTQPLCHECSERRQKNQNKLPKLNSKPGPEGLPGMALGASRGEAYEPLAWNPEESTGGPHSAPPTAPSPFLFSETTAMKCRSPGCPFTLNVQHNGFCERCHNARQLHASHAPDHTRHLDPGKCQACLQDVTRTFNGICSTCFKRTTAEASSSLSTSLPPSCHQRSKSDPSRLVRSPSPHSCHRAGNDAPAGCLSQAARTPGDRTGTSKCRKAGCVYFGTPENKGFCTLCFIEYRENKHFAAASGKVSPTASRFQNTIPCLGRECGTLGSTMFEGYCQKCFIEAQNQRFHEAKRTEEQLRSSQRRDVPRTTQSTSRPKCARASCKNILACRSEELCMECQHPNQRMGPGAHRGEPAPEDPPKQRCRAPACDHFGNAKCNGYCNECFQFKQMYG

One assay covers variants of B1. The following applies: with ascl1_human ASCL1, P50553.
Take E17K: the “effect of a mutation on the interaction” value is on record as “causing an interaction”.

In the next assay the parent is B2. The following applies: with aurka_human AURKA.
For the variant E17K, the “effect of a mutation on the interaction” value is on record as “with no effect”.

The variants in a further assay derive from B3. The following applies: with rubic_human RUBCN.
In the case of E17K, the “effect of a mutation on the interaction” value is listed as “with no effect”.

The variants in another assay derive from B4. The following applies: with fgf6_human FGF6, P10767.
E17K: the “effect of a mutation on the interaction” value is reported as “causing an interaction”.

The variants in another assay derive from B5. As to conditions: with tnap3_human TNFAIP3, P21580.
Take E17K: the “effect of a mutation on the interaction” value is “with no effect”.

For the origin of these results see IntAct's records for PubMed 35512704.
